From patent publication US10927110B2, “Cyano-subtituted heterocycles with activity as inhibitors of USP30” (MISSION THERAPEUTICS LIMITED, priority 2016, dated 2021)

The chains behind the UniProt entries cited, without tags or fusion partners. Residues count along the entry.
UniProt Q70CQ3, 57-517 limits assumed: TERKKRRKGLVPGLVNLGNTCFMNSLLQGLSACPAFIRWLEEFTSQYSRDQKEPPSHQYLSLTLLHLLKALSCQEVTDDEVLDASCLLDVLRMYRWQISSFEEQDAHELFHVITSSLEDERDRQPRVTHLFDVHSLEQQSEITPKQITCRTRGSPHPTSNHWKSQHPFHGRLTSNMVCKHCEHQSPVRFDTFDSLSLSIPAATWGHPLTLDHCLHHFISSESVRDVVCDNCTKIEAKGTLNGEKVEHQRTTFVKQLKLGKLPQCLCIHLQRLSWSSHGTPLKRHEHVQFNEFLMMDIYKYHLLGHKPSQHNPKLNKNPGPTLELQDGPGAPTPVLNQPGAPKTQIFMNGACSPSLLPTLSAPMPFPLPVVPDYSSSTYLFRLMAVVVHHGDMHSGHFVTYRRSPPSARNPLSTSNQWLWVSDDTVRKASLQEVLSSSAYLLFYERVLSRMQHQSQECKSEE

Target: USP30 (Homo sapiens (Human), UniProt Q70CQ3)
Assay: USP30 Biochemical IC50 Assay
Conditions: read-out: IC50 range; fluorescence polarisation, TAMRA labelled peptide linked to ubiquitin; 30 min pre-incubation, read after 2 h at room temperature
Description: USP30 Biochemical IC50 Assay
Dilution plates were prepared at 21 times the final concentration (2100 μM for a final concentration of 100 μM) in 50% DMSO in a 96-well polypropylene V-bottom plate (Greiner #651201). A typical 8-point dilution series would be 100, 30, 10, 3, 1, 0.3, 0.1, […]. Reactions were performed in duplicate in black 384 well plates (small volume, Greiner 784076) in a final reaction volume of 21 μl. Either 1 μl of 50% DMSO or diluted compound was added to the plate. USP30 was diluted in reaction buffer (40 mM Tris, pH 7.5, 0.005% Tween 20, 0.5 mg/ml BSA, 5 mM beta-mercaptoethanol) to the equivalent of 0.05 μl/well and 10 μl of diluted USP30 was added to the compound. Enzyme and compound were incubated for 30 min at room temp. Reactions were initiated by the addition of 50 nM of TAMRA labelled peptide linked to ubiquitin via an iso-peptide bond as fluorescence polarisation substrate. Reactions were read immediately after addition of substrate and following a 2 h incubation at room temperature. Readings were performed on a Pherastar Plus (BMG Labtech). λ Excitation 540 nm; λ Emission 590 nm.

`N#Cc1cccc(-c2cnc3[nH]c(C4(F)CCCN(C#N)C4)nc3c2)c1` (stereo not shown) gave an IC50 of 100 to 1000 nM.
